This note sets out measurements from article PMC4593394 (ACS chemical biology, 2015).

This data set relates to HEK293 cells expressing p97-C522A. The data set is described as follows: Cytotoxicity. Particulars: HEK293, MTT assay, eight-point dose response. It is filed as cell-based. (Tetrazolium assays rely on reduction of a dye to a coloured formazan, in cell work by metabolically active cells.)

Consider `CC1=C(CO)C(=O)O[C@@H]([C@@H](C)[C@H]2CC[C@H]3[C@@H]4C[C@H]5O[C@]56[C@@H](O)C=CC(=O)[C@]6(C)[C@H]4CC[C@]23C)C1` [Compound 1, withaferin A], for which the “shift of cytotoxicity IC50 when p97-C522A is expressed versus wt-p97” value is on record as “no statistically significant rescue”.
